PubChem BioAssay AID624170 (National Center for Advancing Translational Sciences (NCATS), 2012)
This is a selection; strong and weak results do not stand in their true shares. Records with an inconclusive call do not appear. The source made the active and inactive calls. The call rests on the fitted dose curve; in most records, active means well fitted inhibition curve with a large enough effect; inconclusive means small, poorly fitted or top-dose-only effect, or another doubt; inactive means no such curve, though single readings can be large or run the other way.

Amino acid sequences for entries named in this document (tags omitted).
UniProt O94925, whole entry: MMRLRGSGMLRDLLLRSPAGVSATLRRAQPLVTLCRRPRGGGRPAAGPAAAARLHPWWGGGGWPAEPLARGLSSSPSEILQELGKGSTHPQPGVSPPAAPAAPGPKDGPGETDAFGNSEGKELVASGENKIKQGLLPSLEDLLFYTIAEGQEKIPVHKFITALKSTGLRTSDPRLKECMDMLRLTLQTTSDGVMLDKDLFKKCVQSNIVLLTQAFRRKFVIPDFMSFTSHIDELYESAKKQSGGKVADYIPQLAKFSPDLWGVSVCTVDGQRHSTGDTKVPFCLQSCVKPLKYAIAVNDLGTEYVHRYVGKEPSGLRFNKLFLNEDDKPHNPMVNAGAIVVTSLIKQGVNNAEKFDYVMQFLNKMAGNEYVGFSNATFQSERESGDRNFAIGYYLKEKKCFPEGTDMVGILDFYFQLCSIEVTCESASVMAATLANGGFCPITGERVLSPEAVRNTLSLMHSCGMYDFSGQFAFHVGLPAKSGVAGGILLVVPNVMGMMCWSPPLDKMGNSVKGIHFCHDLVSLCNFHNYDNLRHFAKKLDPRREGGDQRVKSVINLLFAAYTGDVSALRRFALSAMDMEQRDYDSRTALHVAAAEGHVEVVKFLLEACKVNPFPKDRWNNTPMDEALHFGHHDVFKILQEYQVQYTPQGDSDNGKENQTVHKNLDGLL

target: Glutaminase kidney isoform, mitochondrial (Homo sapiens) (UniProt O94925); experiment: qHTS for Inhibitors of Glutaminase (GLS); conditions: GLS enzymatic activity, qHTS titration; at 45.5 µM (top of the series)
On the % scale 0 is the no-effect control and ±100 the full control effect.

Row | SMILES | activity change, negative = inhibition
1 | CCC(=O)N(c1ccccc1)C1(COC)CCN(CCn2nnn(CC)c2=O)CC1 | inactive: -3.88%
